From ChEMBL document CHEMBL1155952, “4-Amino-6-arylamino-pyrimidine-5-carbaldehyde hydrazones as potent ErbB-2/EGFR dual kinase inhibitors” (Bioorg Med Chem Lett, 2008)

Amino acid sequences for entries named in this document (tags omitted).
UniProt P00533, whole entry: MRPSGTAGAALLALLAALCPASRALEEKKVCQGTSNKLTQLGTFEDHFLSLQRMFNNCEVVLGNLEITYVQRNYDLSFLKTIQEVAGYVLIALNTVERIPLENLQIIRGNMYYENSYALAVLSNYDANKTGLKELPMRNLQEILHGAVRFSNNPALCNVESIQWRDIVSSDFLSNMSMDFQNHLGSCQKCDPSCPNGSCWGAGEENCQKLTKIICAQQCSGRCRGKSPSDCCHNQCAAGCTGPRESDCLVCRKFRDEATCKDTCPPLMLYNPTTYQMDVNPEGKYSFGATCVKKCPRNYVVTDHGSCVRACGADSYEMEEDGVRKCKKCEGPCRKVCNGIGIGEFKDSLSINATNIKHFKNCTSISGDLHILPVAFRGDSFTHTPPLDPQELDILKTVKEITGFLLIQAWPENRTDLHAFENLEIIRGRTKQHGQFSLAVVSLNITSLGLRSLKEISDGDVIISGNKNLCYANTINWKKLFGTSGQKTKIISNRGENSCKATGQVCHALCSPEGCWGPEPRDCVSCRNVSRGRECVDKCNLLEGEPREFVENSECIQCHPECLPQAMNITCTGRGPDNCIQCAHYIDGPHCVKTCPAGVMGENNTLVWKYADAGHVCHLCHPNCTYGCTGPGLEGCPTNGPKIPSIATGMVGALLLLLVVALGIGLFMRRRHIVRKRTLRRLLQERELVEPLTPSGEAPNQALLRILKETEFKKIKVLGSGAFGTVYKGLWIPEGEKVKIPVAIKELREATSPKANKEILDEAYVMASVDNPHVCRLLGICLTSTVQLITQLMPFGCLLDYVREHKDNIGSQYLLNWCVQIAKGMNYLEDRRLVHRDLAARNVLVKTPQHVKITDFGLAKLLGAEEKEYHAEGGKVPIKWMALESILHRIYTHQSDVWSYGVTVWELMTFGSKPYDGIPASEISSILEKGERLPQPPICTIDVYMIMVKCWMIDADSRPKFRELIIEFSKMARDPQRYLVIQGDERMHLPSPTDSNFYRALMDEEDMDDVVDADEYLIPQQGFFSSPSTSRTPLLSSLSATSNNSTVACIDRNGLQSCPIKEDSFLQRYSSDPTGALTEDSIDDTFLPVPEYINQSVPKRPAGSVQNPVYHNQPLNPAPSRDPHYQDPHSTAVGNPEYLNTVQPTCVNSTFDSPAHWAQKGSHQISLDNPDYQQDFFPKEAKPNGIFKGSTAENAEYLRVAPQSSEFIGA

Target: Epidermal growth factor receptor (Homo sapiens, UniProt P00533)
Experiment: Inhibition of human EGFR expressed in SF9 cells

## Nc1ncnc(Nc2ccc3c(cnn3Cc3cccc(F)c3)c2)c1/C=N/N1CCCCC1
  IC50: 0.03 µM
